# Hits are enriched below; roughly 3.7% of the tested compounds scored in any of these assays.
# ClpP mod – qHTS Assay for Activators of ClpP; ATP-dependent Clp protease proteolytic subunit (Bacillus subtilis (strain 168)), P80244; purified B. subtilis ClpP, FRET peptide cleavage, 20 min; Potency, µM (top dose mostly 57.5 µM); actives 1.9% (n = 340,000); AID 651965, 2013; active = well fitted falling curve with a large enough effect; inconclusive = small, poorly fitted or top-dose-only effect; inactive = no such curve, though single readings can be large or run the other way; also: the source files actives as falling curves though it sought activators and does not explain the sign; nearly all actives have a fitted effect of over 65% in size
#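 ClpP 10 microg/mL final, pH 8 Tris/KCl buffer with BSA, glycerol, Tween-20; compound pinned in; FRET-FV substrate; RT 20 min; Ex320/Em430; ΔFRET vs ADEP 5.8 microM, DMSO, no enzyme.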
# miR-21 FLuc – miR-21 reporter, rising signal | HeLa miR-21 FLuc reporter, luciferase, 48 h | Potency, µM (top dose mostly 38.3 µM) | 340,000 tested, under 10 active | AID 2288; active = well fitted rising curve with a large enough effect; inconclusive = small, poorly fitted or top-dose-only effect; inactive = no such curve, though single readings can be large or run the other way;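 further: miR-21 action dims this reporter so a rising signal means less miR-21 action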
#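 HeLa cells stably expressing CMV-driven firefly luciferase with a downstream miR-21 binding sequence, endogenously expressing miR-21, were treated with titrations (up to about 40uM final) for 48 hours at 37 degree Celsius. Luciferase luminescence was read after lysis.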
# A549 viability – counter-screen for Nrf2 inhibitors: cytotoxicity in A549 cells. A549 ARE-Fluc cells, CellTiter-Fluor viability, 18-24 h. Potency, µM (doses to about 46 µM), actives largely listed as inhibitors. actives 0.16% (n = 390,000). AID 504648
#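 A549 ARE_Fluc cells in 5% FBS OPTI-MEM were exposed to compounds in concentration-response for 18-24 h at 37 deg C. Viability was read by CellTiter-Fluor fluorescence (Ex 405/Em 525) after 30 min, before the luciferase read.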
# Nrf2 block – inhibitors of Nrf2 signaling. Potency, µM (highest dose often 46 µM), most hits filed as inhibitors. actives 2.1% (n = 360,000). A549 ARE-Fluc reporter, luciferase luminescence, 18-24 h; also: nearly all actives have a fitted effect of over 60% in size
#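 Cells were seeded and rested 2 h, then exposed to compounds for 18-24 h. CellTiter-Fluor was read first as a viability measure. BugLite was added 15 min before the final luminescent read of ARE-luciferase activity in A549 cells.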
# TCR act – activators of T cell receptors | 330,000 tested, under 10 active | Potency, µM (titrated, usually from 9.22 µM), actives largely listed as activators | primary human leukocytes, anti-CD3, IL-2 HTRF, 48 h
#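 IL-2 release read by HTRF sandwich (Eu cryptate donor, d2 acceptor, 665 nm emission) after 48 hr exposure of primary human leukocytes to compound together with anti-CD3 beads in the absence of co-stimulatory signals.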
# Nrf2 activator – Nrf2 pathway activation. AREc32 ARE-luciferase reporter (MCF7-derived line), luminescence, 24 h. Potency, µM (series often up to 46.1 µM), most hits filed as activators. actives 0.31% (n = 410,000). AID 624171; also: nearly all actives have a fitted effect of over 65% in size
#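 AREc32 cells carrying an ARE-driven firefly luciferase, 1000 cells/well in OPTI-MEM with 5% FBS, dosed after overnight attachment and incubated 24 hr at 37 deg C. Steady-Glo luminescence read after 30 min at RT.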
# Numbers stand for hits; . = inactive; ? = inconclusive; / = no result given. Unless noted, calls follow the shape of the dose curve; as a rule, active = well fitted curve in the direction sought with a large enough effect; inconclusive = small, poorly fitted or top-dose-only effect, or another doubt; inactive = no such curve, though single readings can be large; an effect the other way counts as inactive or inconclusive.
SMILES,ClpP mod,miR-21 FLuc,A549 viability,Nrf2 block,TCR act,Nrf2 activator
CNc1ccc(/C=C/c2ccnc3ccccc23)cc1,.,/,/,/,/,/
CCCCCCSc1cc(-c2nc3cc(C)ccn3c2NCCCC)ccc1OC,16µM,/,.,?,.,.
CCCCCCSc1cc(-c2nc3cnccn3c2NCCCC)ccc1OC,.,/,.,?,.,.
CCCCNc1c(-c2ccc(OC)c(Sc3ccc(OC)cc3)c2)nc2ccccn12,.,/,?,18µM,.,.
CCc1cc2c(CN3CCN(CCO)CC3)cc(=O)oc2cc1O,14µM,.,?,.,.,.
CCc1cc2c(CN3CCN(C)CC3)cc(=O)oc2cc1O,?,.,?,.,.,.
COc1ccc(N2CCN(Cc3cc(=O)oc4cc(-c5ccccc5)c(O)cc34)CC2)cc1,32µM,.,.,.,.,.
O=C(CN1C(=O)c2ccccc2C1=O)NCC(=O)Nc1ccccc1,.,/,.,.,.,.
O=C(c1ccc(Cl)s1)N1CCN(c2nc3ccccc3s2)CC1,.,.,.,7.3µM,.,.
O=C(c1cccs1)N1CCN(c2nc3ccccc3s2)CC1,.,.,.,?,.,.
COc1ccc(C(=O)Sc2ccc(Cl)cc2)cc1OC,.,.,?,21µM,.,.
COc1ccc(C(=O)Sc2ccc(C)cc2)cc1OC,.,.,.,.,.,?
COc1cccc(N2C(=O)c3ccccc3C2=O)c1,/,/,.,.,/,/
Nn1c(SCC(=O)N2CCCCC2)nnc1-c1ccncc1,28µM,.,.,/,.,.
CN1C(=S)SC(N(O)C(=O)Nc2cccc3ccccc23)C1(C)C (configuration not stated),32µM,.,.,/,.,.
CN1C(=S)SC(N(O)C(=O)Nc2ccccc2)C1(C)C (configuration not stated),.,.,.,.,.,.
Cc1ccc(-c2cc(C(=O)N3CCN(S(=O)(=O)c4ccc(Br)cc4)CC3)[nH]n2)cc1C,.,.,.,.,/,.
COc1ccccc1NC(=O)C(OC(=O)CNC(=O)c1ccccc1)c1ccccc1 (configuration not stated),/,/,.,.,/,/
CC(CCc1ccc(O)cc1)NC(c1ccccc1)c1ccc(Cl)cc1 (configuration not stated),/,.,?,23µM,.,.
CC(CCc1ccc(O)cc1)NCCC(c1ccccc1)c1ccccc1 (configuration not stated),/,.,.,.,.,.
O=P(Cc1ccccc1)(Cc1ccccc1)c1ccccc1,32µM,/,.,?,.,.
O=P(Cc1ccccc1)(c1ccccc1)c1ccccc1,.,.,.,.,.,.
CCCCCN1C=CC(=C2C(=O)c3ccccc3C2=O)C=C1,.,?,.,9.2µM,.,.
CCn1cc(C(=O)N2CCCC(N3CCN(c4ccccc4C)CC3)C2)cn1 (configuration not stated),.,.,.,.,.,.
Fc1cccc(C2NN=C(c3ccccc3)S2)c1 (configuration not stated),/,.,.,?,.,3.5µM
SMILES,ClpP mod,miR-21 FLuc,A549 viability,Nrf2 block,TCR act,Nrf2 activator
Cc1ccc(C2=NNC(c3cccc(F)c3)S2)cc1 (configuration not stated),.,.,.,?,.,?
CC1CC(=O)c2c(cc3c(-c4c(O)cc(O)c5c(O)c6c(cc45)OC(C)CC6=O)c(O)cc(O)c3c2O)O1 (configuration not stated),.,?,?,12µM,.,.
C[C@@H](c1ncncc1F)[C@](O)(Cn1cncn1)c1ccc(F)cc1F,/,.,/,/,/,/
CCOC(=O)c1c(NC(=O)c2ccncc2)sc(C)c1C,.,.,.,.,.,.
CCOC(=O)c1sc(NC(=O)c2ccncc2)c(C#N)c1C,.,.,?,23µM,.,.
CC(C)CC(=O)NC(=S)Nc1nc(-c2cccc3ccccc23)cs1,.,.,?,26µM,.,.
CCOc1ccccc1NC(=O)CSc1ccc2nnc(CCNS(=O)(=O)c3ccccc3)n2n1,.,.,.,.,/,.
O=C(Nc1ccccc1C(F)(F)F)C1(S(=O)(=O)c2ccc(Cl)cc2)CC1,.,.,.,.,/,.
Cc1c(/C(O)=C2/C(=O)C(=O)N(CCN3CCOCC3)C2c2cccs2)cnn1-c1ccccc1 (configuration not stated),11µM,.,.,/,.,.
CCOc1ccccc1N(C)C(=O)Cn1nc(Cc2cccnc2)c2ccccc2c1=O,.,.,.,.,/,.
Cc1cccc(N2CCN(C(=O)Cn3nc(Cc4cccnc4)c4ccccc4c3=O)CC2)c1C,.,?,.,16µM,/,.
CCN(C(=O)Cn1nc(Cc2cccnc2)c2ccccc2c1=O)c1cc(C)ccc1C,.,.,.,18µM,/,.
Cc1cccc(N2CCN(C(=O)Cn3ccc4ccccc4c3=O)CC2)c1C,.,.,.,18µM,.,.
O=C(CCc1ccccc1)NC(NC(=S)Nc1ccc(Br)cc1)C(Cl)(Cl)Cl (configuration not stated),.,.,?,9.2µM,.,.
O=C(CCc1ccccc1)NC(NC(=S)Nc1cccc(Cl)c1)C(Cl)(Cl)Cl (configuration not stated),.,.,.,?,.,.
CCOC(=O)c1cc(CC)sc1NC(=O)c1ccc2c(c1)OCCO2,25µM,.,.,.,.,.
CCOc1ccc2[nH]c3c(NCCO)ncnc3c2c1,.,.,.,.,.,.
C=CCNc1ncnc2c1[nH]c1ccccc12,28µM,.,.,?,.,.
c1ccc(Nc2nc(NCC3CCCO3)c3ccccc3n2)cc1 (configuration not stated),/,?,.,18µM,.,.
Oc1cccc(Nc2nc(NCC3CCCO3)c3ccccc3n2)c1 (configuration not stated),.,.,.,.,.,.
C=CCNc1ncnc2ccccc12,.,.,.,.,.,.
C=CCNc1ncnc2c1[nH]c1ccc(Cl)cc12,28µM,.,?,8.2µM,.,.
c1ccc2c(c1)[nH]c1c(NCC3CCCO3)ncnc12 (configuration not stated),28µM,.,.,15µM,.,.
CCCn1nc(C(=O)NCC2COc3ccccc3O2)c2ccccc2c1=O (configuration not stated),.,/,.,?,.,.
CCOCCCNc1ncnc2c1[nH]c1ccccc12,16µM,.,.,23µM,.,.
CC(=O)c1cccc2c1OC(C)C(=O)N2Cc1ccc(Cl)cc1 (configuration not stated),.,/,/,/,/,.

# Source: PubChem BioAssay
